Experiment: Sol-gel phase transition of poly(organophosphazene) solutions with temperature (Brookfield rheometer)
Assay type: physicochemical
Conditions: pH 7.4
Source text: In Table 3, the term ‘max. (maximum) gelling temp.

Substance | Max. gelling temp.
poly[(isoleucine ethyl-ester)(aminomethoxy polyethylene glycol 350)(glycine)phosphazene] [Example 5] | 7 °C
poly[(isoleucine ethyl-ester)(aminomethoxy polyethylene glycol 550) phosphazene] [Example 11] | 8 °C
poly[(isoleucine ethyl-ester)(aminomethoxy polyethylene glycol 550)(glycylglycine)(glycyl glycyl polyethyleneimine)phosphazene] [Example 13] | 9 °C
poly[(isoleucine ethyl-ester)(aminomethoxy polyethylene glycol 550)(glycylglycine)phosphazene] [Example 9] | 9 °C
poly[(isoleucine ethyl-ester)(aminomethoxy polyethylene glycol 550)(glycylglycine)phosphazene] [Example 10] | 6 °C
poly[(phenylalanine ethyl-ester)(ethyl-2-(O-glycyl)lactate)(aminomethoxy polyethylene glycol 550)] [Example 3] | 2 °C

Reference: patent US9526699B2, “Biodegradable and thermosensitive poly(organophosphazene) hydrogel, preparation method thereof and use thereof” (KIST, priority 2006, dated 2016)
